Biological target: mMC4R (Mus musculus, UniProt P56450)
Details: Example 1; antagonist, Schild analysis with NDP-MSH; ± SEM; <5.0 = no antagonist potency up to 10,000 nM

Chains of the proteins cited; added tags and fusions are not shown.
UniProt P56450, whole entry: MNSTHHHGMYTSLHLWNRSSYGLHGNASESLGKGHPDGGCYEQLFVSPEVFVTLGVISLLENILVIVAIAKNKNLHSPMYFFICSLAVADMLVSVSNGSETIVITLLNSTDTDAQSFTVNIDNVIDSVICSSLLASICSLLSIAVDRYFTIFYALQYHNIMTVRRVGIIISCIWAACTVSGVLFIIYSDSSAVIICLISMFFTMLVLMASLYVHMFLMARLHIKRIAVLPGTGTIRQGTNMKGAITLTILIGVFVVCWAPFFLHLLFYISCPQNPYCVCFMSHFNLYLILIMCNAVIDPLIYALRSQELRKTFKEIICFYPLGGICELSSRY

## CC(C)[C@@H]1NC(=O)[C@H](CN)NC(=O)[C@H](Cc2ccccc2)NC(=O)[C@H](Cc2ccccc2)NC(=O)[C@H](CCCNC(=N)N)NC(=O)[C@@H]2CCCN2C(=O)[C@H]2CCCN2C(=O)[C@H](Cc2ccccc2)NC1=O [ZMK 2-85, c[Pro-Arg-Phe-Phe-Dap-Val-Phe-DPro]]
  mMC4R pA2: 7.5 ± 0.1

From US20210179666A1, “CYCLIC PEPTIDES AND METHODS OF USE THEREOF” (Regents of the University of Minnesota, priority 2019, published 2021)
